Assay results: ChEMBL document CHEMBL5576043, “Synthesis, radiosynthesis and biochemical evaluation of fluorinated analogues of sphingosine-1-phosphate receptor 3 specific antagonists using PET” (Bioorg Med Chem, 2024)

Amino acid sequences for entries named in this document (tags omitted). A change or cut given only in a name is not applied to a line headed by its entry.
UniProt P21453, whole entry: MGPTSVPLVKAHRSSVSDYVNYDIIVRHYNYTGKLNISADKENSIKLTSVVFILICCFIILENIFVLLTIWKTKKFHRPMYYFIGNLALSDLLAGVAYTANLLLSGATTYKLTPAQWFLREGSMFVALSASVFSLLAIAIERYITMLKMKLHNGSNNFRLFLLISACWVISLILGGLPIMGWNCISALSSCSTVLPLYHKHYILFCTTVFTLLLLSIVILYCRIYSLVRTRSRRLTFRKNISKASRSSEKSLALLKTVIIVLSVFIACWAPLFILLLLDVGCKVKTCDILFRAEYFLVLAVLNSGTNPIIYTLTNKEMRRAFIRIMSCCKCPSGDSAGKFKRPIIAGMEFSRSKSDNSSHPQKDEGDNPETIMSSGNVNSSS
UniProt O95136: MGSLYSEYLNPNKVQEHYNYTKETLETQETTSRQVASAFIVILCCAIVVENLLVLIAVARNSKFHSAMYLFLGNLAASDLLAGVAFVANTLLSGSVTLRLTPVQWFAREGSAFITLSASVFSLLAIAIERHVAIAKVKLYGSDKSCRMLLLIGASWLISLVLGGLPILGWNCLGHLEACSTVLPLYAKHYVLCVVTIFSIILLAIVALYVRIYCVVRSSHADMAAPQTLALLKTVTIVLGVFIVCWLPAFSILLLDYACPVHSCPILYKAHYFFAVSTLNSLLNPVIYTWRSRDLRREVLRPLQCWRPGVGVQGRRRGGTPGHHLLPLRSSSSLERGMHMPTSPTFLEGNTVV

Assays:
[1] = molecular target: Sphingosine 1-phosphate receptor 1 (Homo sapiens) (UniProt P21453); assay: Antagonist activity at human S1P1 receptor expressed in CHO-K1 cells assessed as reduction of S1P-induced [Ca2+] level at 10 uM relative to control; type: functional, cell-based; parameters: scale not given: the % may be the effect or the level left
[2] = molecular target: Sphingosine 1-phosphate receptor 2 (Homo sapiens) (UniProt O95136); assay: Antagonist activity at human S1P2 receptor expressed in CHO-K1 cells assessed as reduction of S1P-induced [Ca2+] level at 10 uM relative to control; type: functional, cell-based; parameters: scale not given: the % may be the effect or the level left

For `CC(C)(C)C(=O)/C(=N\Nc1ccc(Cl)cc1)Nc1cccc(F)c1`, the Activity [1] was 22.4% and the Activity [2] was -11.1%.

`CC(C)(C)C(=O)/C(=N/c1ccc(Cl)cc1)NNc1ccc(Cl)cc1` gave an Activity [1] of 29.5% and an Activity [2] of 1.7%.
